Experimental data reported in ChEMBL document CHEMBL1155779, “Characterization of the PON1 active site using modeling simulation, in relation to PON1 lactonase activity” (Bioorg Med Chem, 2008).

Chains of the proteins cited; added tags and fusions are not shown. Lines headed by an entry give the natural chain unless they say otherwise; changes in a name come on top.
UniProt P27169: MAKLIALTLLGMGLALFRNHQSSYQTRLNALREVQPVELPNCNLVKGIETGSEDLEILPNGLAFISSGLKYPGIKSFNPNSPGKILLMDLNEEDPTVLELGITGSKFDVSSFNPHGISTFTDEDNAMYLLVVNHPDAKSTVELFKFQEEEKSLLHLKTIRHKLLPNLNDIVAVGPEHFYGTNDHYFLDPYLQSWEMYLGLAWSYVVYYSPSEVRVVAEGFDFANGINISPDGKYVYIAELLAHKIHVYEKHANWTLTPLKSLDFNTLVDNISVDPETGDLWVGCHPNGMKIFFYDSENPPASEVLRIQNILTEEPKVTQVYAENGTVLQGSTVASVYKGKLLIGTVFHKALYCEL

Target: Serum paraoxonase/arylesterase 1 (Homo sapiens) (UniProt P27169)
Experiment: Activity at human recombinant PON1 assessed as hydrolysis of lactone ring at 1 mM by Ellman's method

Activity: 13 µmol/min/mg
SMILES: O=C1CCc2ccccc2O1
